Amino acid sequences for entries named in this document (tags omitted).
UniProt Q08499, whole entry: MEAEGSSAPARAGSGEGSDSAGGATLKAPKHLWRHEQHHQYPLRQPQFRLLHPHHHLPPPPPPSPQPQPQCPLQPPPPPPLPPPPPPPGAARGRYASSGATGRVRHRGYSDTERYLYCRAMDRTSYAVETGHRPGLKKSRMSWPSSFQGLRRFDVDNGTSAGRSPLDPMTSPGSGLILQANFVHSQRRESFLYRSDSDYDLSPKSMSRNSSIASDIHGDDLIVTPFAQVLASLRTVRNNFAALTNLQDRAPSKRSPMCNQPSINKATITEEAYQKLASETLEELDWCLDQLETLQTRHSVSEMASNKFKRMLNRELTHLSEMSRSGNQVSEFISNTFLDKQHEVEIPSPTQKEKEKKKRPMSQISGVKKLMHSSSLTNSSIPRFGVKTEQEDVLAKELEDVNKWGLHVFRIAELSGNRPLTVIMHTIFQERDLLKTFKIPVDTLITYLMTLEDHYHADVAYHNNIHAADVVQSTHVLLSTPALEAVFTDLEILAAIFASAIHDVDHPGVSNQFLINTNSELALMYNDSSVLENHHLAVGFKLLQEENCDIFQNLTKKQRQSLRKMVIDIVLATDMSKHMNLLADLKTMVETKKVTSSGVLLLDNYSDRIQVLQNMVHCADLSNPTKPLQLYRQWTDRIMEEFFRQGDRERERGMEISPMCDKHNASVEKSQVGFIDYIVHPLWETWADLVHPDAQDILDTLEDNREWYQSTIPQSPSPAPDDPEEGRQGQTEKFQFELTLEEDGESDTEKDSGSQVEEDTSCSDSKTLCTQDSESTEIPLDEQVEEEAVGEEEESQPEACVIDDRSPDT

According to US8450352B2, “Thiazole compounds and their use for inhibiting phosphodiesterase 4, TNF-α, and IL-4” (Otsuka Pharmaceutical Co., Ltd., priority 2004, dated 2013):

Molecular target: human PDE4D (HPDE4D) (Homo sapiens, UniProt Q08499)
Assay: Confirmatory test for phosphodiesterase (PDE) 4 inhibitory activity
Conditions: read-out: IC50 value; concentration that inhibits the PDE4 activity by 50%; PDE4D enzyme solution from transfected COS-7 cells, [3H]cAMP substrate

Row | IC50 [nM] | Structure (SMILES)
1 | 1.6 | CCOc1ccc(-c2nc(CCC(=O)c3ncccc3C)cs2)cc1OCC
2 | 10 | CCOc1ccc(-c2nc(CCC(=O)c3cccn3C)cs2)cc1OCC
3 | 10 | CCOc1ccc(-c2nc(CC(C(=O)OC)C(=O)c3ncccc3OC)cs2)cc1OCC (centres unmarked)
4 | 15 | CCOc1ccc(-c2nc(CCC(=O)c3nccn3C)cs2)cc1OCC
5 | 5.7 | CCOc1ccc(-c2nc(CCC(=O)c3nc(C)cs3)cs2)cc1OCC
